Experimental data as given in patent US7498347B2, “Hydroxycarbonylphenyl substituted 4-(aminomethyl)-piperidine benzamides as 5HT4 antagonists” (Janssen Pharmaceutica, N.V., priority 2004, dated 2009).
Values belong to the molecule of their own block, whether it stands above or below them.

Sequences of proteins named here, by UniProt entry; tags and fusion partners are left off.
UniProt Q13639, whole entry: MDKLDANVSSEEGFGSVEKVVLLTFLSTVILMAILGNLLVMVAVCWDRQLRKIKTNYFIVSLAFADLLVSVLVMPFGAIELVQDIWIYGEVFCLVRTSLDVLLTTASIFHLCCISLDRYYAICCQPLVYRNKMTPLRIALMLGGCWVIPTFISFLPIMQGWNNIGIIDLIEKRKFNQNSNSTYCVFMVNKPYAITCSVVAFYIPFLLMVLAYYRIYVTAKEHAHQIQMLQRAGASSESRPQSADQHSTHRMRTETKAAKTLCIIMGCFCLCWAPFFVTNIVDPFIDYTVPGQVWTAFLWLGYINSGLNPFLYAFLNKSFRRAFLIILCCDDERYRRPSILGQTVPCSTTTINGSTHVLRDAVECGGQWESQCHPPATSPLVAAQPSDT

Tests used:
[1] = Metabolic stability in liver microsomes, LC-MS analysis; settings: compound 5 μM, microsomes 1 mg/ml, NADPH-generating system, 60 minutes at 37 degrees Celsius
Protocol: Sub-cellular tissue preparations were made according to Gorrod et al. (Xenobiotica 5: 453-462, 1975) by centrifugal separation after mechanical homogenization of tissue. Liver tissue was rinsed in ice-cold 0.1 M Tris-HCl (pH 7.4) buffer to wash excess blood. Tissue was then blotted dry, weighed and chopped coarsely using surgical scissors. The tissue pieces were homogenized in 3 volumes of ice-cold 0.1 M phosphate buffer (pH 7.4).
Tissue homogenates were centrifuged at 9000×g for 20 minutes at 4° C. The resulting supernatant was stored at −80° C. and is designated ‘S9’.
The S9 fraction can be further centrifuged at 100.000×g for 60 minutes (4° C.). The resulting supernatant was carefully aspirated, aliquoted and designated ‘cytosol’. The pellet was re-suspended in 0.1 M phosphate buffer (pH 7.4) in a final volume of 1 ml per 0.5 g original tissue weight and designated ‘microsomes’.
All sub-cellular fractions were aliquoted, immediately frozen in liquid nitrogen and stored at −80° C. until use.
For the samples to be tested, the incubation mixture contained PBS (0.1M), compound (5 μM), microsomes (1 mg/ml) and a NADPH-generating system (0.8 mM glucose-6-phosphate, 0.8 mM magnesium chloride and 0.8 Units of glucose-6-phosphate dehydrogenase). Control samples contained the same material but the microsomes were replaced by heat inactivated (10 minutes at 95 degrees Celsius) microsomes. Recovery of the compounds in the control samples was always 100%.
The mixtures were preincubated for 5 minutes at 37 degrees Celsius. The reaction was started at time point zero (t=0) by addition of 0.8 mM NADP and the samples were incubated for 60 minutes (t=60). The reaction was terminated by the addition of 2 volumes of DMSO. Then the samples were centrifuged for 10 minutes at 900×g and the supernatants were stored at room temperature for no longer as 24 hours before analysis. All incubations were performed in duplo. […]
Metabolic stability was expressed as % metabolism of the compound after 60 minutes (equation given as example) of incubation in the presence of active microsomes (E(act))

[2] = biological target: h5-HT4b (Homo sapiens, UniProt Q13639); assay: 5HT4 antagonism: [3H]GR113808 binding to membranes of h5-HT4b-HEK 293 clone 9 cells; settings: displacement of [3H]GR113808 0.1 nM, h5-HT4b-HEK 293 membranes, 30 min at 25° C.
Protocol: h5-HT4b-HEK 293 clone 9 cells were cultured in 150 mm Petri dishes and washed twice with cold PBS. The cells were then scraped from the plates and suspended in 50 mM Tris-HCl buffer, pH 7.4 and harvested by centrifugation at 23,500 rpm for 10 minutes. The pellet was resuspended in 5 mM Tris-HCl, pH 7.4 and homogenized with an Ultra Turrax homogenizer. The membranes were collected by centrifugation at 30,000 rpm for 20 min, resuspended in 50 mM Tris-HCl pH 7.4 and stored at −80° C. For the experiment, assay mixtures (0.5 ml) contained 50 μl of the tritiated ligand (5-HT4 antagonist [^3H]GR113808 0.1 nM) and 0.4 ml membrane preparation (15 μg protein/ml). 50 μl of 10% DMSO was added for total binding. 50 μl of 1 μM of (+)-trans-(1-butyl-3-hydroxy-4-piperidinyl)methyl 8-amino-7-chloro-2,3-dihydro-1,4-benzodioxin-5-carboxylate (a proprietary 5HT4 agonist of Janssen Pharmaceutica) was added for determination of non-specific binding.
The [^3H]GR113808 assay buffer was 50 mM HEPES-NaOH, pH 7.4. The mixtures were incubated for 30 min at 25° C. The incubation was terminated by filtration over a Unifilter 96 GF/B presoaked in 0.1% polyethylenimine, followed by six washing steps with 50 mM HEPES-NaOH, pH 7.4.

- % metabolized (% metabolised compound after 60 minutes) ([1]; tested form: H2O): 6.5%
- pIC50 (5HT4 antagonistic data) ([2]; tested form: H2O): 7.02
SMILES: Cc1ccc(C(=O)NC[C@@H]2CCN(CCCOc3ccccc3C(=O)O)C[C@H]2O)c2c1OCCCO2

- % metabolized (% metabolised compound after 60 minutes) ([1]; tested form: HCl, H2O (2:3)): 20%
- pIC50 (5HT4 antagonistic data) ([2]; tested form: HCl, H2O (2:3)): 8.15
SMILES: CO[C@@H]1CN(CCCOc2ccc(C(=O)O)cc2)CC[C@H]1CNC(=O)c1cc(Cl)c(Br)c2c1OCCCO2 (relative stereo)

- pIC50 (5HT4 antagonistic data) [2]: 7.74
SMILES: CO[C@@H]1CN(CCCOc2ccc(C(=O)O)cc2)CC[C@H]1CNC(=O)c1cc(F)cc2c1OCCCO2 (relative stereo)

- % metabolized (% metabolised compound after 60 minutes) [1]: 13.5%
- pIC50 (5HT4 antagonistic data) [2]: 7.5
SMILES: O=C(O)c1cccc(OCCCN2CC[C@@H](CNC(=O)c3cc(Cl)cc4c3OCCCO4)[C@H](O)C2)c1 (relative stereo)
